Results as given in paper PMC3108608 (2011).

The chains behind the UniProt entries cited, without tags or fusion partners. Residues count along the entry.
UniProt P35354, 18-604: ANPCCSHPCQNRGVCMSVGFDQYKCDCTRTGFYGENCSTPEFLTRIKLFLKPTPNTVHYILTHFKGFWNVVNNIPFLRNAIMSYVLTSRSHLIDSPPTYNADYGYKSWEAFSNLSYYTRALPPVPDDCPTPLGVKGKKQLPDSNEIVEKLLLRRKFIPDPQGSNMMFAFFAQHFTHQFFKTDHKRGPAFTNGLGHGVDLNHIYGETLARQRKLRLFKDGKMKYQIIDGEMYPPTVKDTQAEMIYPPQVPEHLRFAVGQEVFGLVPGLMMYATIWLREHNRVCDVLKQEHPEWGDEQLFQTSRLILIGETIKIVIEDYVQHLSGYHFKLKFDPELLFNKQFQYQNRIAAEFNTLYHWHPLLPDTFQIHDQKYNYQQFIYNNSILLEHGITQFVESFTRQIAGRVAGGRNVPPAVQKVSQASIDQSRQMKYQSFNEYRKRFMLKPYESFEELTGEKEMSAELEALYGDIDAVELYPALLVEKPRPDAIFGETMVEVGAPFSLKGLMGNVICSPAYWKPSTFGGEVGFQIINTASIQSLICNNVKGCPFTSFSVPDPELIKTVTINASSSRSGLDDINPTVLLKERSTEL
UniProt P05979, 25-600: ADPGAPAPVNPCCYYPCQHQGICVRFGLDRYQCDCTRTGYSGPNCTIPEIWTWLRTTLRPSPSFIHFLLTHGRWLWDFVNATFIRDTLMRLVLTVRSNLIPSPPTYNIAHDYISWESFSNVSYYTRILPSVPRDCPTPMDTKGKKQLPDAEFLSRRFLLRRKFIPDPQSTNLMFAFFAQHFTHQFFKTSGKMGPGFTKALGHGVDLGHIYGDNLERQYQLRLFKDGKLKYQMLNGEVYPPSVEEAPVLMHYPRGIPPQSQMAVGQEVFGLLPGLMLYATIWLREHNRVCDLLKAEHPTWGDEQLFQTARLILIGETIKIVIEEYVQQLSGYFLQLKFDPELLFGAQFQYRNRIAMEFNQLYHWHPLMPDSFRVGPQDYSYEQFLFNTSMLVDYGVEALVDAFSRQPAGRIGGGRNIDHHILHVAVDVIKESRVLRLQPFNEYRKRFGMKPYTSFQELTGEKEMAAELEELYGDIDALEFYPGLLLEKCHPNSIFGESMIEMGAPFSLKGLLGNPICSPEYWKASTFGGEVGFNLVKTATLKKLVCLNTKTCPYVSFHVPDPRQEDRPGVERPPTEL

Columns and labels:
[1] = test system: 6-keto PGF1α formation from exogenous AA in human whole blood; assay: tissue or blood; conditions: 16 h, read-out: 6-keto PGF1α formation, not significantly affected up to
[2] = test system: carrageenan-induced pleurisy; assay: Carrageenan-induced pleurisy in rats; assay type: in vivo, rat; conditions: 4 h after carrageenan
[3] = molecular target: human recombinant COX-2 (Homo sapiens, UniProt P35354); assay: biochemical
[4] = test system: 12-HHT formation (mainly derived from platelet COX-1) in human whole blood; assay: 12-HHT formation in human whole blood (A23187 plus AA); assay type: cell-based; conditions: 10 min, read-out: 12-HHT formation, failed to suppress up to
[5] = test system: 6-keto PGF1α formation in LPS-stimulated human whole blood; assay: 6-keto PGF1α formation in LPS-stimulated human whole blood; assay type: cell-based; conditions: 5 h, read-out: 6-keto PGF1α formation, failed to suppress up to
[6] = test system: PGE2 formation from exogenous AA in human whole blood; assay: tissue or blood; conditions: read-out: IC50 of PGE2 formation
[7] = test system: PGE2 formation from exogenous AA in human whole blood; conditions: LPS 16 h pre-stimulation, 20 μM AA
[8] = test system: TXB2 formation in LPS-stimulated human whole blood; assay: TXB2 formation in LPS-stimulated human whole blood; assay type: cell-based; conditions: 5 h, read-out: TXB2 formation, failed to suppress up to
[9] = molecular target: purified ovine COX-1 (Ovis aries, UniProt P05979); assay: biochemical
[10] = test system: PGE2 formation in LPS-stimulated human whole blood; assay: PGE2 formation in LPS-stimulated human whole blood; assay type: cell-based
[11] = human, in vivo, po; cited from earlier work

Compound: CC(C)=CCCC1(C)C(CC=C(C)C)CC2(CC=C(C)C)C(=O)C1(C(=O)C(C)C)C(=O)C(CC=C(C)C)=C2O (centres unmarked) [Hyp, Hyperforin]
- IC50 [1]: > 30 µM
- attenuation of cell infiltration ([2]; Hyp 4 mg kg^−1 i.p., indomethacin 5 mg kg^−1): 50%
- Exudate volume ([2]; i.p. 30 min before, Hyperforin 4 mg kg^−1, Indomethacin 5 mg kg^−1, vehicle 0.44 ± 0.04): 0.16 ± 0.05 mL
- IC50 [3]: > 30 µM
- IC50 [4]: > 30 µM
- IC50 [5]: > 30 µM
- IC50 [6]: 0.25 µM
- concentration at which inhibition of PGE2 formation reaches significance [7]: 30 nM
- IC50 [8]: > 30 µM
- IC50 [9]: 12 µM
- inhibition at 1 µM ([10]; Homo sapiens, 5 h, read-out: inhibition of PGE2 formation): 25 ± 3%
- IC50 ([10]; Homo sapiens, read-out: apparent IC50 of PGE2 formation): ~3 µM
- residual PGE2 formation ([10]; LPS-stimulated whole blood, maximal effect): approx. 50 % of vehicle control
- steady-state concentration [11]: 0.28 µM
